Calls of active or inactive are those of the source. The calls are words filed in the database; no cut-off is given here.
Experiments:
[1] = molecular target: Lysophosphatidic acid receptor 1 (Rattus norvegicus) (UniProt P61794); assay: Agonist activity at LPA1 receptors in Wistar rat DRG neurons assessed as increase in calcium influx at 10 uM measured after 10 secs in presence of capsaicin by Fluo-4 NW dye based inverted microscopic method; format: functional
How it was run: (§1)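 DRG neurons from 3–5-day-old Wistar rats were collagenase-digested and cultured 48 h with NGF. Cells loaded with 5 μM Fluo-4AM and 0.02% pluronic in HEPES-buffered HBSS pH 7.4 for 1 h at 37°C, then perfused at rt. Compound given at 10 μM final (from 10 mM DMSO stock) as 10 s pulses. Capsaicin and 40 mM KCl (10 s, viability) also applied. Signal is peak minus baseline fluorescence; a response is >20% over baseline.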

Protein sequences, listed by entry. Tags and fused reporters are not part of them. Lines headed by an entry give the natural chain unless they say otherwise; changes in a name come on top.
UniProt P61794: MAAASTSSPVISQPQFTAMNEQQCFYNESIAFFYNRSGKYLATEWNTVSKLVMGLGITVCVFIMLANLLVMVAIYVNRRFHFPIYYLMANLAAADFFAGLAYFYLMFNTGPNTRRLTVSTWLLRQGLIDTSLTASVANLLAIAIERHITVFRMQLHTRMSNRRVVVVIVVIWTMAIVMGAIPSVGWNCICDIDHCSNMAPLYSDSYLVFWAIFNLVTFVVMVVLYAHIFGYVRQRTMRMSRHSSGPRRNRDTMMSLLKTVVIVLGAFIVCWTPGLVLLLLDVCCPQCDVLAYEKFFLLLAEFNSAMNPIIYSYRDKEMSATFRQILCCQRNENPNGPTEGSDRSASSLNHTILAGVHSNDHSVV

[2] = molecular target: Lysophosphatidic acid receptor 1 (Rattus norvegicus) (UniProt P61794); assay: Induction of LPA1 receptor desensitization in Wistar rat DRG neurons assessed as reduction in calcium influx at 10 uM treated twice after 10 secs in presence of capsaicin by Fluo-4 NW dye based inverted microscopic method; format: functional; how it was run: as §1
[3] = molecular target: Lysophosphatidic acid receptor 1 (Rattus norvegicus) (UniProt P61794); assay: Agonist activity at LPA1 receptors in Wistar rat DRG neurons assessed as increase in neuronal activity at 10 uM incubated for 15 secs in presence of capsaicin by Microelectrode Array
How it was run: (§2)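 Neonatal Wistar rat DRG neurons, cultured 48 h on poly-L-lysine/laminin-coated 60-electrode MEA chips. Compound perfused at 10 μM final for 15 s at 2 mL/min. Extracellular activity recorded at 25 kHz; output is mean spike frequency.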

[4] = molecular target: Lysophosphatidic acid receptor 1 (Rattus norvegicus) (UniProt P61794); assay: Induction of LPA1 receptor desensitization in Wistar rat DRG neurons assessed as reduction in neuronal activity at 10 uM treated for 15 secs twice with 4 mins interval in presence of capsaicin by microelectrode Array; how it was run: as §2

Activity [1]: Active
Activity [3]: Active
Structure (SMILES): O=C(CCCCCCCCCc1ccccc1)O[C@H](CBr)COP(=O)(O)O
Activity [2]: Active
Activity [4]: Active
